Reference: patent US20250353828A1, “SUBSTITUTED BIARYL ENDOCHIN-LIKE QUINOLONES WITH ENHANCED ANTIPARASITIC ACTIVITY” (Oregon Health & Science University, priority 2022, published 2025)

Legend:
[1] = biological target: T1, P. falciparum cytochrome bc1 complex (Plasmodium falciparum, UniProt Q02768); conditions: data taken from Nilsen et al., 2013 (a) or Frueh et al., 2017 (b); cited from earlier work
T1 construct: endogenous in cells
T1 sequence (Q02768 1-376): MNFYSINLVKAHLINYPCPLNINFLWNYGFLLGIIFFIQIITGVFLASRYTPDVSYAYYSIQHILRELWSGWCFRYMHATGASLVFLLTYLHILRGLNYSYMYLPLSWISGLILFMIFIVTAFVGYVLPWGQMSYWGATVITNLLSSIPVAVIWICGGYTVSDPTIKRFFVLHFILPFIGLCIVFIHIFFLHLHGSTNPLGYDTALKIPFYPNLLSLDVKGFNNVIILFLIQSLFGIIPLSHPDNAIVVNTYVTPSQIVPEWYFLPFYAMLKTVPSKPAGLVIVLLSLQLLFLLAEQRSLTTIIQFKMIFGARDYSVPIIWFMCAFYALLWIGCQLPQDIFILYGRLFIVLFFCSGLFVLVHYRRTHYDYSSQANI

[2] = tested on: P. falciparum cytochrome bc1 complex; assay type: biochemical; conditions: based on enzyme inhibitory activity
Description: Isolation of Plasmodium falciparum Mitochondria and Ubiquinol-Cytochrome c Oxidoreductase Assay.

O=C1C(O)=C([C@H]2CC[C@H](c3ccc(Cl)cc3)CC2)C(=O)c2ccccc21 [Atovaquone, reference compound]
IC50 [1]: 2 nM | Selectivity Index Human/Pf cyt. bc1 [2]: 230
